Sequences of proteins named here, by UniProt entry; tags and fusion partners are left off.
UniProt P47712, whole entry: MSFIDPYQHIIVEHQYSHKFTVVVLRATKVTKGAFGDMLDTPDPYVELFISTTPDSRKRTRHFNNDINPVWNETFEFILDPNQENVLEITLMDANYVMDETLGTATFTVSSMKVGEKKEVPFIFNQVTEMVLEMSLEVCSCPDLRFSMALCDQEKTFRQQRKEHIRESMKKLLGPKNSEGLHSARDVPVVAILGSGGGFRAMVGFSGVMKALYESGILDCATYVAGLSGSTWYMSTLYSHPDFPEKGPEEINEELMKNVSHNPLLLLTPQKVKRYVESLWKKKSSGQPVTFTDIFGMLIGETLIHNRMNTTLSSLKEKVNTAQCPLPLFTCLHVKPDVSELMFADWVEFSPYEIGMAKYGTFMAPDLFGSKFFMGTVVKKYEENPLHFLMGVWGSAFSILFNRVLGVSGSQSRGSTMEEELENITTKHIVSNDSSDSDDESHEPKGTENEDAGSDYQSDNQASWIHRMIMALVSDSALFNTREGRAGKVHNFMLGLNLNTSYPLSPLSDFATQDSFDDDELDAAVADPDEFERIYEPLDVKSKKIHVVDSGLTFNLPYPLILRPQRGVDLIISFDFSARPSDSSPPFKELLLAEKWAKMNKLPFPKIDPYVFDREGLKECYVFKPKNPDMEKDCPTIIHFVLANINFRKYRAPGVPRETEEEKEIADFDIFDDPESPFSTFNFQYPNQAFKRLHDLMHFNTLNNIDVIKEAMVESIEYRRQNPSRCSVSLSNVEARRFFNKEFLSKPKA

According to patent US6924301B1, “Composition for treating or preventing arrhythmia” (Shionogi & Co., Ltd., priority 1999, dated 2005):

Target: cPLA2 (Homo sapiens, UniProt P47712)
Test: cPLA2 inhibitory activity
Format: biochemical
Conditions: 1-palmitoyl-2-[14C]-arachidonoyl-sn-glycero-3-phosphocholine liposomes, 15 min at 37° C.
Method: The compounds of the present invention were tested for the cPLA2 inhibitory activity according to the method disclosed in […]. Roberts, […], and J. E. Putnam, J. Biol. Chem., 1991, 266, 5268-5272 as outlined below. […] The reaction mixture includes 50 mM HEPES buffer (pH 7.5), 1 mM calcium chloride, 150 mM sodium chloride, 0.1 mg/ml bovine serum albumin, and 1.7 mM dithiothreitol. To the reaction mixture was added the compound of the present invention and the substrate solution. The reaction was allowed to start by adding an enzyme and continued for 15 min at 37° C. The fatty acids released by the reaction were extracted by the method described in V. P. Dole, and H. Meinertz, J. Biol. Chem., 1960, 235, 2595-2599 and its radiation activity was measured on a liquid scintillation counter. Control was obtained by conducting the experiment in the same manner except that a compound of the present invention was not added.

Q: With `CC(C)CC(CC(C)C)N(CC(C)C)[C@@H]1C[C@@H](CNC(=O)c2ccc(/C=C3\SC(=O)NC3=O)cc2)N(C(=O)c2ccccc2C(=O)c2ccc(F)cc2F)C1` as the compound, how does the IC50 read?
A: Its IC50 is 6.7 nM.
